Read-outs that look alike come from different tables or passages of the source.
Columns and labels:
HT7 [1] = molecular target: T1, HT7 (Rhodococcus rhodochrous, UniProt P0A3G2, A155T/A167V/A172T/A224E/C128F/C176G/D78G/E160K/E257K/H272N/K175M/K195N/L47V/L88M/N227D/S58T/T264A/Y273L/Y87F); experiment: Fluorescence polarization titration (KD); conditions: for binding affinity (KD) to HT7: stated in words
HT7 [2] = molecular target: T1, HT7; experiment: Protein labeling, SDS-PAGE and in-gel fluorescence; conditions: labeling 30 minutes, 37° C., SDS-PAGE
[3] = molecular target: live U-2 OS cells (HaloTag7-SNAP-NLS) (Rhodococcus rhodochrous, UniProt P0A3G2, A155T/A167V/A172T/A224E/C128F/C176G/D78G/E160K/E257K/H272N/K175M/K195N/L47V/L88M/N227D/S58T/T264A/Y273L/Y87F); experiment: Confocal staining of live cells (cell permeability); conditions: no-wash confocal
[4] = molecular target: fixed U-2 OS cells expressing HaloTag7-SNAP-NLS (Rhodococcus rhodochrous, UniProt P0A3G2, A155T/A167V/A172T/A224E/C128F/C176G/D78G/E160K/E257K/H272N/K175M/K195N/L47V/L88M/N227D/S58T/T264A/Y273L/Y87F); experiment: Confocal staining of fixed cells; conditions: 500 nM, no-wash confocal
dHT7^D106A [5] = molecular target: T2, dHT7^D106A (Rhodococcus rhodochrous, UniProt P0A3G2, A155T/A167V/A172T/A224E/C128F/C176G/D106A/D78G/E160K/E257K/H272N/K175M/K195N/L47V/L88M/N227D/S58T/T264A/Y273L/Y87F); experiment: Fluorescence polarization titration (KD); conditions: stated in words
HT7 [6] = molecular target: T1, HT7; experiment: pH-dependency of FP binding kinetics and affinity
HT7 [7] = molecular target: T1, HT7; experiment: Fluorescence turn-on assay
dHT7^D106A [8] = molecular target: T2, dHT7^D106A; experiment: Stopped-flow fluorescence polarization binding kinetics; conditions: compared with nrHTL binding to HT7
[9] = molecular target: H2B-HT7^D106A-T2A-meGFP expressing live cells (Rhodococcus rhodochrous, UniProt P0A3G2, A155T/A167V/A172T/A224E/C128F/C176G/D106A/D78G/E160K/E257K/H272N/K175M/K195N/L47V/L88M/N227D/S58T/T264A/Y273L/Y87F); experiment: Live-cell no-wash confocal staining
dHT7^D106X = dHT7^D106X (Rhodococcus rhodochrous, UniProt P0A3G2, A155T/A167V/A172T/A224E/C128F/C176G/D106C/D78G/E160K/E257K/H272N/K175M/K195N/L47V/L88M/N227D/S58T/T264A/Y273L/Y87F)
HT7 [10] = molecular target: T1, HT7; experiment: Stopped-flow fluorescence polarization binding kinetics
H2B-HT8 = H2B-HT8 (Rhodococcus rhodochrous, UniProt P0A3G2, A155T/A167V/A172T/A224E/C128F/C176G/C262S/C61S/D78G/E160K/E257K/H272N/K175M/K195N/L47V/L88M/N227D/S58T/T264A/Y273L/Y87F); experiment: Live-cell confocal staining
[11] = read-out: binding affinity KD to HT7, fluorogenic variants of nrHTL1 23

The chains behind the UniProt entries cited, without tags or fusion partners. Where a name states a change or a piece, a line headed by the entry shows the natural chain unless it says otherwise. A line that says so, or that is headed by a name, gives the form on record, which may keep a tag or linker. Residues count along the entry.
UniProt P0A3G2, 3-290 with tags or gaps with the stated changes limits assumed: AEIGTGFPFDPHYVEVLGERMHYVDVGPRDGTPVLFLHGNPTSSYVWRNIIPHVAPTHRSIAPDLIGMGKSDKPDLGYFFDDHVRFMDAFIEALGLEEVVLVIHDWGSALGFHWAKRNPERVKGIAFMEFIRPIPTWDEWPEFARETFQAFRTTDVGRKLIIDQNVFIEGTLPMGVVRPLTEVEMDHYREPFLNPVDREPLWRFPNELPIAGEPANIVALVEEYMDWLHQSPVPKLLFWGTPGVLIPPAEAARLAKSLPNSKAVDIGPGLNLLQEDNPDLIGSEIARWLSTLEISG

SMILES: CN(C)c1ccc2c(-c3cc(C(=O)NCCOCCOCCCCNS(=O)(=O)C(F)(F)F)ccc3C(=O)[O-])c3ccc(=[N+](C)C)cc-3oc2c1
- binding affinity (KD) to HT7 (HT7 [1]; fluorescence polarization): analogous to their corresponding nrHTL 23
- covalent linkage to HT7 (in-gel fluorescence) (HT7 [2]): Non-covalent binding

SMILES: CC(=O)NCCCCOCCOCCNC(=O)c1ccc(C(=O)[O-])c(C2=C3C=CC(=[N+](C)C)C=C3[Si](C)(C)c3cc(N(C)C)ccc32)c1
- binding affinity (KD) to HT7 (HT7 [1]; fluorescence polarization): No binding

SMILES: CN(C)c1ccc2c(-c3cc(C(=O)NCCOCCOCCCCNS(C)(=O)=O)ccc3C(=O)[O-])c3ccc(=[N+](C)C)cc-3oc2c1
- staining of live cells [3]: not able to stain live cells
- staining of fixed cells [4]: properly stained
- binding affinity to dHT7^D106A (dHT7^D106A [5]): significantly less affinity
- binding affinity (KD) to HT7 (HT7 [1]; fluorescence polarization): sub-μM
- covalent linkage to HT7 (in-gel fluorescence) (HT7 [2]): did not lead to a covalent linkage
- pH-dependent affinity (KD) (HT7 [6]; between pH 7.2 and 8.0): constant KD-values
- pH-dependent affinity (KD) (HT7 [6]; pH 6.0): decreased affinity

SMILES: C[Si]1(C)C2=CC(=[N+]3CCC3)C=CC2=C(c2cc(C(=O)NCCOCCOCCCCNS(C)(=O)=O)ccc2C(=O)[O-])c2ccc(N3CCC3)cc21
- Kd (HT7 [1]; [11]): 120 nM

SMILES: CN(C)c1ccc2c(c1)Oc1cc(N(C)C)ccc1C21c2cc(C(=O)NCCOCCOCCCCNS(C)(=O)=O)ccc2C(=O)N1S(=O)(=O)N(C)C
- Kd (HT7 [1]; [11]): 910 nM
- fluorescence turn-on upon HaloTag binding (HT7 [7]; stated in words): barely shows any turn-on

SMILES: CN(C)c1ccc2c(-c3cc(C(=O)NCCOCCOCCCCN=[N+]=[N-])ccc3C(=O)[O-])c3ccc(=[N+](C)C)cc-3oc2c1
- binding affinity (KD) to HT7 (HT7 [1]; fluorescence polarization): moderate mM range

SMILES: CN(C)c1ccc2c(-c3cc(C(=O)NCCOCCOCCCCCO)ccc3C(=O)[O-])c3ccc(=[N+](C)C)cc-3oc2c1
- binding affinity to dHT7^D106A (dHT7^D106A [5]): sub-micromolar affinity
- binding kinetics to dHT7^D106A (dHT7^D106A [8]): even faster

SMILES: CN(C)c1ccc2c(c1)[Si](C)(C)C1=CC(=[N+](C)C)C=CC1=C2c1cc(C(=O)NCCOCCOCCCCCO)ccc1C(=O)[O-]
- binding affinity to dHT7^D106A (dHT7^D106A [5]): sub-micromolar affinity
- binding affinity (KD) to HT7 (HT7 [1]; fluorescence polarization): decent binding affinity

SMILES: CN(C)c1ccc2c(c1)[Si](C)(C)C1=CC(=[N+](C)C)C=CC1=C2c1cc(C(=O)NCCOCCOCCCCO)ccc1C(=O)[O-]
- cell permeability and staining of H2B-HT7^D106A [9]: sufficient cell permeability and a specific nuclear staining
- binding affinity to dHT7^D106A (dHT7^D106A [5]): sub-micromolar affinity
- binding kinetics to dHT7^D106A (dHT7^D106A [8]): even faster

SMILES: CCCCCCOCCOCCNC(=O)c1ccc(C(=O)[O-])c(-c2c3ccc(=[N+](C)C)cc-3oc3cc(N(C)C)ccc23)c1
- binding affinity (KD) to HT7 (HT7 [1]; fluorescence polarization): moderate mM range
- Kd (HT7 [1]; read-out: affinity to HT7, fluorescence polarization): 40000 nM

SMILES: CN(C)c1ccc2c(-c3cc(C(=O)NCCOCCOCCCCCNS(C)(=O)=O)ccc3C(=O)[O-])c3ccc(=[N+](C)C)cc-3oc2c1
- staining of live cells [3]: not able to stain live cells
- binding affinity to dHT7^D106A (dHT7^D106A [5]): significantly less affinity
- enhancement of binding affinity in comparison to TMR-23 (factor) (HT7 [1]; HT7): 2
- binding to HT7^D106C compared with native HT7 (dHT7^D106X): equivalent binder
- difference in binding speed compared to TMR-28 (HT7 [10]; HT7): about 4 orders of magnitude
- time to completion of binding to HT7 (HT7 [10]; stopped-flow FP): ≤ 0.5 s
- covalent linkage to HT7 (in-gel fluorescence) (HT7 [2]): did not lead to a covalent linkage

SMILES: CN(C)c1ccc2c(c1)[Si](C)(C)C1=CC(=[N+](C)C)C=CC1=C2c1cc(C(=O)NCCOCCOCCCCNS(C)(=O)=O)ccc1C(=O)[O-]
- staining of live cells [3]: specific and similar nuclear staining
- covalent linkage to HT7 (in-gel fluorescence) (HT7 [2]): did not lead to a covalent linkage

SMILES: CNCCCCCOCCOCCNC(=O)c1ccc(C(=O)[O-])c(-c2c3ccc(=[N+](C)C)cc-3oc3cc(N(C)C)ccc23)c1
- staining of live cells [3]: not able to stain live cells
- binding affinity to dHT7^D106A (dHT7^D106A [5]): significantly less affinity
- binding affinity (KD) to HT7 (HT7 [1]; fluorescence polarization): sub-μM
- binding to HT7^D106C compared with native HT7 (dHT7^D106X): equivalent binder
- covalent linkage to HT7 (in-gel fluorescence) (HT7 [2]): did not lead to a covalent linkage
- increase of binding speed between pH 6.0 and 8.0 (factor) (HT7 [6]; HT7): about 7
- binding affinity over pH range (HT7 [6]; pH 6.0 to 8.0): stays comparable

SMILES: CN(C)c1ccc2c(c1)[Si](C)(C)C1=CC(=[N+](C)C)C=CC1=C2c1cc(C(=O)NCCOCCOCCCCNS(=O)(=O)C(F)(F)F)ccc1C(=O)[O-]
- binding affinity (KD) to HT7 (HT7 [1]; fluorescence polarization): analogous to their corresponding nrHTL 23
- fluorescence turn-on upon HT7 binding (HT7 [7]; quotient of emission with/without HT7 at emission maximum): > 10
- staining of H2B-HT8 (H2B-HT8): superior brightness

SMILES: CC(=O)NCCCCOCCOCCNC(=O)c1ccc(C(=O)[O-])c(-c2c3ccc(=[N+](C)C)cc-3oc3cc(N(C)C)ccc23)c1
- binding affinity (KD) to HT7 (HT7 [1]; fluorescence polarization): No binding
